{"source": "paper PMC8456950", "about": "“Structure‐Guided Design of G‐Protein‐Coupled Receptor Polypharmacology” (Angewandte Chemie (International Ed. in English), 2021)", "origin": "cited, not measured here", "conditions": "CNS active drugs for comparison; cited from earlier work"}
{"smiles": "Cc1nc2n(c(=O)c1CCN1CCC(c3noc4cc(F)ccc34)CC1)CCCC2", "note": "[risperidone]", "values": [{"measurement": "brain-to-plasma ratio", "result": 0.95}]}
